Protein sequences, listed by entry. Tags and fused reporters are not part of them. Lines headed by an entry give the natural chain unless they say otherwise; changes in a name come on top.
UniProt P47900: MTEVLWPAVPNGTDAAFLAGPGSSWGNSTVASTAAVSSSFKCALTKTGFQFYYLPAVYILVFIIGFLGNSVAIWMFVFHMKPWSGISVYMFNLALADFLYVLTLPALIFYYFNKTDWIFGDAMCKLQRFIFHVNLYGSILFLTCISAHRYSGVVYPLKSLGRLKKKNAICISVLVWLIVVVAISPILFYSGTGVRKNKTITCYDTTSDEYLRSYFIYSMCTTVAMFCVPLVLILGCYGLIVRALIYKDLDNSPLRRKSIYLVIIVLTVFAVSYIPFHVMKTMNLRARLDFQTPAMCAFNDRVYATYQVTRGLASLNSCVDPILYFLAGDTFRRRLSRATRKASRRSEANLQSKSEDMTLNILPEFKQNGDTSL

According to patent US8053450B2, “Amino-benzazoles as P2Y1 receptor inhibitors with pyridine ring and heterocyclic components” (Bristol-Myers Squibb Company, priority 2004, dated 2011):

Target: T1, cloned human P2Y1 receptors (Homo sapiens, UniProt P47900)
T1 construct: expressed in transfected cells
Assay: P2Y1 membrane binding assay ([33P] 2MeS-ADP displacement)
Details: radioligand Kd used in the Cheng-Prusoff calculation; read-out: Kd for 2MeS-ADP to the P2Y1 receptor
From the text: A membrane binding assay was used to identify inhibitors of [^33P] […] The cDNA clone for human P2Y1 was obtained from Incyte Pharmaceuticals and its sequence confirmed by established techniques (for a compendium of techniques used see Ausubel, F. et al. Current Protocols in Molecular Biology 1995 John Wiley and Sons, NY, N.Y.). The essential coding sequences were subcloned into pCDNA 3.1 (Invitrogen) to produce a P2Y1 expression construct. This construct was then transfected into the human embryonic kidney cell line HEK-293 and stable transfectants selected in Genetcin® (G418 sulfate; Life Technologies). […] Membranes were prepared by growing HEK293 #49 in 150 mm dishes in DMEM/10% FBS in the presence of 1 mg/ml G418 until cells were 80-90% confluent. Plates were then washed with cold (4° C.) D-PBS twice and cells harvested by scraping into 10 mL D-PBS. Cells were pelleted by centrifugation (1,000 g, 10 min, 4° C.) and the resulting pellet resuspended in Lysis Buffer (10 mM Tris (7.4), 5 mM MgCl2 containing Complete® protease inhibitor cocktail (Roche Cat #1873580) as recommended by the manufacturer). […]
Reactions were allowed to proceed to completion at room temperature for 1 hour and then the aqueous solution aspirated. Plates were sealed and the residual [^33P] bound to the plate determined by scintillation counting.

CSc1nc(N)c2ncn([C@@H]3O[C@H](COP(=O)(O)OP(=O)(O)O)[C@@H](O)[C@H]3O)c2n1 [Example 2MeS-ADP, 2MeS-ADP] was tested, and the Kd was 1.4 nM.
